# Tested on: DENV2
# Conditions: Table 1
substance,measurement,value
"3-[10,15,20-tris(3-hydroxyphenyl)-2,3,22,24-tetrahydroporphyrin-5-yl]phenol [Temoporfin]",Therapeutic index (TI) (CC50/EC50),558

# From US20230102223A1, “PHARMACEUTICAL COMPOSITIONS WITH ANTIFLAVIVIRAL ACTIVITY” (HEALTH RESEARCH, INC., priority 2016, published 2023)
